In ChEMBL document CHEMBL4261574 (Medchemcomm, 2018) one finds IC50 data, which are given here for 1 compound.

The chains behind the UniProt entries cited, without tags or fusion partners.
UniProt P23219, whole entry: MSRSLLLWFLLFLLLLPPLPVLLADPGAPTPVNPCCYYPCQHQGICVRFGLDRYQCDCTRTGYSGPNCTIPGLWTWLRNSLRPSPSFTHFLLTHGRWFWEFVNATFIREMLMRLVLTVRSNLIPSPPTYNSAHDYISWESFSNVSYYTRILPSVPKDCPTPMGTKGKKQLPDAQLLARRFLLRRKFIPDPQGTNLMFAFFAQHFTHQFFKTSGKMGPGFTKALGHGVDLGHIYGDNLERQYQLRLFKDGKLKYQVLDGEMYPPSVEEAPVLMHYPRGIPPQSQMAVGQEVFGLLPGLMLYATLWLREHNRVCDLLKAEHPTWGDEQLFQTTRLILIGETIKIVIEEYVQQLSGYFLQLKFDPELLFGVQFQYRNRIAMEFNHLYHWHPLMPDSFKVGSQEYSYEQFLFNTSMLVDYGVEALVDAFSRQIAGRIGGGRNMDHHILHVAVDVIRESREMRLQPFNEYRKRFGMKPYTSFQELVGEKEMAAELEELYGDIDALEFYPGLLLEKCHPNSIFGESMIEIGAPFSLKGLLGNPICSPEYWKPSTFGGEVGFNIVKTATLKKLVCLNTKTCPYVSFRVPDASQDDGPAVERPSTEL

The target in this assay is Prostaglandin G/H synthase 1 (Homo sapiens, UniProt P23219).

Molecules are shown by their SMILES.

Regarding `Cc1onc(-c2ccccc2)c1-c1ccc(S(N)(=O)=O)cc1` [VALDECOXIB], the IC50 (as a rule, the concentration that gives 50% inhibition) came to 150 µM.
